Measurements taken from patent EP3733658B1, “PRENYLATED BENZOPYRANES AS PPAR AGONISTS” (Universitat de València, priority 2017, dated 2019).

Test system: ob/ob mice
Experiment: Treatment of ob/ob mice: blood glucose
Settings: mouse, in vivo, 10 mg/kg/day
From the text: […]. […] […].

CN(CCOc1ccc(CC2SC(=O)NC2=O)cc1)c1ccccn1 (stereo not drawn) [Rosiglitazone, rosiglitazone, reference compound]
glucose blood level, day 0 (before treatment): 217 mg/dL
glucose blood level after 4 days (po): 135 mg/dL
reduction of glucose blood levels compared to day 0 (po): 32%
